# Values of other authors as cited in patent publication US20260053141A1, “AGROCHEMICAL FORMULATION” (priority 2022, published 2026).
# Details: temperature not given
substance,measurement,value
butyl acetate and isomers,water solubility,0.6-0.8 % w/w
